## Binding of CDR-mutated scFvs to a peptide of the spike HR2 region

Source: Engelhart et al. 2022 (doi:10.1038/s41597-022-01779-4), MIT Lincoln Laboratory and A-Alpha Bio; data file from the FLAb repository.

The target is the same throughout: PDVDLGDISGINAS, from the HR2 region of SARS-CoV-2 spike.

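The starting antibody came from a phage panning campaign against this peptide. Variants in AAYL52 differ from the parent at up to three CDR positions; double and triple changes were sampled at random. The scFvs were displayed on barcoded MATa yeast, the peptide on MATalpha yeast. The frequency of each diploid, read from paired DNA barcodes, reflects how well the two displayed proteins bind. Each replicate has its own calibration line, from reference interactions of the BCL2 family. There are three technical replicates.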

The variants keep the heavy chain, the linker and the frameworks of Ab-95 (scFv order VH, the linker GGGGSGGGGSGGGGS, VL).
VH: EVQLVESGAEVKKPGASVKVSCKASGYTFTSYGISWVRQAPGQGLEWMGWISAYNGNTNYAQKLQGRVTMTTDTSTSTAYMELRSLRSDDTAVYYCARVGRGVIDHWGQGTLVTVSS
VL: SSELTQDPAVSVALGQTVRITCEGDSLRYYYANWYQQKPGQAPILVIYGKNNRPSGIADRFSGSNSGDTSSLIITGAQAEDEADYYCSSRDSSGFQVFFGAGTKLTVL

Variants are written as CDR1, CDR2 and CDR3 of the light chain (limits as in the source). Parent: EGDSLRYYYAN, GKNNRPS, SSRDSSGFQVF.
Every variant below is changed at D25 of the VL (sequential numbering).
Scale: log10 of Kd in nM, estimated from mating counts; low values are strong binders.
A mean of the replicates is given; it leaves out those without a signal.
An entry "nd" has no value in the source: the pair was not observed among the diploids in any replicate. This suggests poor binding but is not conclusive.
Three control strains display no target. For library AAYL52, 28% of the pairings with them gave a signal, with a median of 3.91 and one signal in twenty below 2.90, so weak values seen in few replicates may be background. For each scFv, signals with the empty controls are counted beside the result.
Parent in this assay: reference entry 2.31, copy in this library 2.25.

* EGCSLAYYYAN / GKNNRPS / SSRDSSGFQVK: 3.52 (1 of 3 replicates; controls 2 of 9)
* EGLSLRYYYAN / GKNNPPS / SSRDSSHFQVF: nd (0 of 3 replicates; controls 0 of 9)
* EGPSLRYYYYN / GKNNRPS / SSRDSSGFQVF: 3.53 (2 of 3 replicates; controls 0 of 9)
* ESASLDYYYAN / GKNNRPS / SSRDSSGFQVF: 2.87 (3 of 3 replicates; controls 5 of 9)
* EGSSLRYYYAN / GKNNRPS / STSDSSGFQVF: nd (0 of 3 replicates; controls 1 of 9)
* EGKSLRYYYAN / GKNNRPQ / SSRDSSGFQVF: 2.20 (3 of 3 replicates; controls 0 of 9)
* EGISLRYYYAN / GKANRPS / SSRDSSGRQVF: 2.51 (3 of 3 replicates; controls 2 of 9)
* EGFSIRYYYAN / GKNNRPS / SSQDSSGFQVF: 4.13 (2 of 3 replicates; controls 3 of 9)
* EMESLRYYYAN / GNNNRPS / SSRDSSGFQVF: 3.13 (1 of 3 replicates; controls 1 of 9)
* EGWSLRYYVAN / GKNNRPS / SSRDLSGFQVF: 3.88 (1 of 3 replicates; controls 3 of 9)
* FGASLRYYYIN / GKNNRPS / SSRDSSGFQVF: 4.49 (1 of 3 replicates; controls 1 of 9)
* EGGSLNYYYAN / GQNNRPS / SSRDSSGFQVF: 1.47 (3 of 3 replicates; controls 1 of 9)
* EGESLRYYYAN / GKNHRDS / SSRDSSGFQVF: 2.93 (3 of 3 replicates; controls 0 of 9)
* EGFSLRYYYAN / GKNNRWS / SSRDSSMFQVF: 3.38 (2 of 3 replicates; controls 3 of 9)
* EGHSLRYYYAN / GKLNRPS / SSRDSSGFQVF: 4.42 (2 of 3 replicates; controls 5 of 9)
* EGGSLRYYYAN / GKNERPS / SSRDSSWFQVF: 1.88 (3 of 3 replicates; controls 2 of 9)
* EGCSVRYYYAN / GNNNRPS / SSRDSSGFQVF: 3.24 (2 of 3 replicates; controls 3 of 9)
* EGYSLRYYYAN / GKNNRPS / SSRDSDGFQMF: 3.98 (3 of 3 replicates; controls 1 of 9)
* EGVSLRYYYAN / GKNNRPS / SSRDNSGLQVF: 2.57 (3 of 3 replicates; controls 2 of 9)
* EGFSLRYYYAN / GWNNRPS / SSRDCSGFQVF: 3.62 (3 of 3 replicates; controls 3 of 9)
* EGHSLRYYYAN / PKNNRPS / SSRDSQGFQVF: 4.79 (1 of 3 replicates; controls 1 of 9)
* EGMSLRYYYAN / GKNNRPS / SSRFSSGFQVF: 3.68 (2 of 3 replicates; controls 2 of 9)
* EGPSLRNYYAN / GKNNRPS / SSRDSNGFQVF: 2.49 (3 of 3 replicates; controls 3 of 9)
* EGFSLRYYYAN / GKNNRAS / SSRDSSGFQGF: 4.18 (1 of 3 replicates; controls 1 of 9)
* EGIVLCYYYAN / GKNNRPS / SSRDSSGFQVF: 4.22 (2 of 3 replicates; controls 5 of 9)
* EGVSLRYYYAN / GANNRPS / SSRDSSHFQVF: 2.94 (3 of 3 replicates; controls 3 of 9)
* EGYSLWGYYAN / GKNNRPS / SSRDSSGFQVF: 2.15 (3 of 3 replicates; controls 5 of 9)
* EGMSLNYYAAN / GKNNRPS / SSRDSSGFQVF: 1.45 (3 of 3 replicates; controls 3 of 9)
* EGESLRYTYAN / GKNNRPF / SSRDSSGFQVF: 1.29 (3 of 3 replicates; controls 6 of 9)
* EGISLRYYYAN / GKNNRGS / SSRDSSGFQVF: 2.36 (3 of 3 replicates; controls 3 of 9)
* EGHSLRYYYAH / GKNGRPS / SSRDSSGFQVF: nd (0 of 3 replicates; controls 1 of 9)
* EGLSLRYYYRQ / GKNNRPS / SSRDSSGFQVF: 5.36 (1 of 3 replicates; controls 5 of 9)
* EFTSLRAYYAN / GKNNRPS / SSRDSSGFQVF: 2.81 (3 of 3 replicates; controls 0 of 9)
* EGFSLRYYYAN / EKNNRPS / SSRYSSGFQVF: 4.31 (1 of 3 replicates; controls 1 of 9)
* EGISIRYYYAN / GKNNRPS / SSRSSSGFQVF: 3.39 (2 of 3 replicates; controls 4 of 9)
* EGKLLQYYYAN / GKNNRPS / SSRDSSGFQVF: nd (0 of 3 replicates; controls 2 of 9)
* EGPSLRYPYSN / GKNNRPS / SSRDSSGFQVF: 1.10 (3 of 3 replicates; controls 3 of 9)
* HGHSLRYYSAN / GKNNRPS / SSRDSSGFQVF: 2.00 (3 of 3 replicates; controls 1 of 9)
* EGGSLRYYYAN / GKVNRPS / SSRDSSGFQVF: 3.75 (1 of 3 replicates; controls 3 of 9)
* EGFSLRYYCAN / GKNNRPS / SSRYSSGFQVF: 3.57 (3 of 3 replicates; controls 3 of 9)
* EGESLRYYYAD / GKNNRPS / SSRDSSGFFVF: 3.11 (1 of 3 replicates; controls 1 of 9)
* EGYSLRYYYAN / GKNNRPS / SSNDSSYFQVF: 2.34 (3 of 3 replicates; controls 4 of 9)
* EGASLRYYYIN / GKNNRPS / SCRDSSGFQVF: 3.19 (3 of 3 replicates; controls 6 of 9)
* EGHSLRYYYAN / GMNNRPS / SSRDSSGMQVF: 2.42 (3 of 3 replicates; controls 0 of 9)
* EGKSLRYYYAN / HKNNRPS / SSRWSSGFQVF: 3.64 (2 of 3 replicates; controls 3 of 9)
* NGWHLRYYYAN / GKNNRPS / SSRDSSGFQVF: 3.16 (3 of 3 replicates; controls 1 of 9)
* EGESLRYYQAN / GKNNRPS / SSRYSSGFQVF: 1.48 (3 of 3 replicates; controls 4 of 9)
* EGRSLRYYYVN / GKNNRPS / SSRDSSGFQVF: 2.44 (3 of 3 replicates; controls 3 of 9)
* EGCSLRYYYAN / GKNNRPS / SSEDSSGFQVD: nd (0 of 3 replicates; controls 0 of 9)
* EGKSLRYYYAN / GKNNRPS / SSRDSSLFQVF: 3.14 (3 of 3 replicates; controls 3 of 9)

Picked from the list: the 8 lowest averages where every replicate gave a value.

CDR-L1	CDR-L2	CDR-L3	log10 Kd (nM), mean	seen in	signal with controls
EGPSLRYPYSN	GKNNRPS	SSRDSSGFQVF	1.10	3/3	3/9
EGESLRYTYAN	GKNNRPF	SSRDSSGFQVF	1.29	3/3	6/9
EGMSLNYYAAN	GKNNRPS	SSRDSSGFQVF	1.45	3/3	3/9
EGGSLNYYYAN	GQNNRPS	SSRDSSGFQVF	1.47	3/3	1/9
EGESLRYYQAN	GKNNRPS	SSRYSSGFQVF	1.48	3/3	4/9
EGGSLRYYYAN	GKNERPS	SSRDSSWFQVF	1.88	3/3	2/9
HGHSLRYYSAN	GKNNRPS	SSRDSSGFQVF	2.00	3/3	1/9
EGYSLWGYYAN	GKNNRPS	SSRDSSGFQVF	2.15	3/3	5/9